{"source": "patent US6329498A", "about": "“Polypeptide transition metal salts and method of enhancing anti-HIV activity of polypeptide” (Seikagaku Corporation, priority 1996, dated 2001)", "test_system": "MT-4 cells", "assay": "Cytotoxicity on virus-non-infected MT-4 cells, MTT method", "assay_type": "cell-based", "settings": "5 days at 37° C.", "data": [{"substance": "Dextran sulfate [reference compound]", "values": [{"measurement": "CC50 (50% cytotoxic concentration)", "result": "> 1000", "unit": "µg/mL"}]}]}
